# In PubChem BioAssay AID504847 (National Center for Advancing Translational Sciences (NCATS), 2011):
# Protein sequences, listed by entry. Tags and fused reporters are not part of them. Lines headed by an entry give the natural chain unless they say otherwise; changes in a name come on top.
# UniProt P11473: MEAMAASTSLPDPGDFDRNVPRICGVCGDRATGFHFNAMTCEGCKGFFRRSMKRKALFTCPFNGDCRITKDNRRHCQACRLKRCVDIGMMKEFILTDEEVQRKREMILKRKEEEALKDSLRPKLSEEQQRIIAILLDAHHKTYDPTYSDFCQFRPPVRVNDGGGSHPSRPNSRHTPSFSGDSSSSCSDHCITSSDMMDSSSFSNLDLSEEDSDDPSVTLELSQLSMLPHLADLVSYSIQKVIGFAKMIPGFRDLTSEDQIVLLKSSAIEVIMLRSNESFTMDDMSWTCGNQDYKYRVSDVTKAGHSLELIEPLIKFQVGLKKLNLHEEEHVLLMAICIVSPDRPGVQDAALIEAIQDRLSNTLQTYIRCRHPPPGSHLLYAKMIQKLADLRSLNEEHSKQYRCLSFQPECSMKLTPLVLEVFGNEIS
# The list shows a part of the results, in another mix than the full data. Results filed as inconclusive are left out. Calls of active or inactive are those of the source. Calls follow the shape of the dose curve; as a rule, active = well fitted inhibition curve with a large enough effect; inconclusive = small, poorly fitted or top-dose-only effect, or another doubt; inactive = no such curve, though single readings can be large or run the other way.
# Target: Vitamin D3 receptor (Homo sapiens) (UniProt P11473)
# Assay: Inhibitors of the vitamin D receptor (VDR): qHTS
# Conditions: VDR-SRC2-3 peptide fluorescence polarization, 2 h; stronger effect = lower value
# % is scaled to controls: 0 for no effect and ±100 for the full control effect.
row,Compound,"max response, negative = inhibition"
1,CCCCC1C(=O)N(c2ccccc2)N(c2ccccc2)C1=O,inactive: -14.7%
